This note sets out measurements from BindingDB's records for US10807989.

Protein sequences, listed by entry. Tags and fused reporters are not part of them.
UniProt P35372, whole entry: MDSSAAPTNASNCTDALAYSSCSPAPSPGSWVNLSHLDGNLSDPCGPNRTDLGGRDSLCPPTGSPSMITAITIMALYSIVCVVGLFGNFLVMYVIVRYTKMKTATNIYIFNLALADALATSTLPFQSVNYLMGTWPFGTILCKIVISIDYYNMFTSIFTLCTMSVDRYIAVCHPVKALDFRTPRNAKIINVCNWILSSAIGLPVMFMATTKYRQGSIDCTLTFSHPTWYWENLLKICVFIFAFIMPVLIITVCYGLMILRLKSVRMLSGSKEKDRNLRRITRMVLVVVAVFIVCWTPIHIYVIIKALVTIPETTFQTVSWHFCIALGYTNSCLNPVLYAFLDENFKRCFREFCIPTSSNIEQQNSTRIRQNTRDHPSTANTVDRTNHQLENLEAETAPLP

The experiment concerns the target Mu-type opioid receptor (Homo sapiens, UniProt P35372). The experiment in a line: ASSAY_NAME: Human Mu-Opioid Peptide (hMOP) Receptor Binding Assay DESCRIPTION: The hMOP receptor binding assay was performed as homogeneous SPA-assay (scintillation proximity assay) using the assay buffer 50 mM TRIS-HCl (pH 7.4) supplemented with […] bovine serum albumin (Sigma-Aldrich Co., St. Louis, Mo.). The final assay volume (250 μl/well) included 1 nM of [N-allyl-2,3-3H]naloxone. (In general: SPA uses beads or plates that emit light when radiolabelled molecules are held near them.)

Consider `CN(C)[C@]1(c2ccccc2)CC[C@]2(CC1)CN(CC(=O)N1C[C@@H](O)[C@@H](O)C1)C(=O)N2CC1CCC1`, for which the Ki is 29 nM.

As usually defined, the Ki is a measure of affinity in units of concentration, obtained from inhibition or displacement. A higher Ki goes with weaker binding.
